These results are taken from EP0314008A2, “N-substituted aliphatic heterocyclic compounds able to facilitate the passage of active substances through physiological barriers” (priority 1987, dated 1989).

Usually inhibition stands for the change of the read-out against control, counted positive when it falls. Read a low inhibition as a response near the control.

The test system of the experiment is histamine. Description: Test 73 - Antihistaminic (in vitro), isolated ileal segments. It counts as cell-based, guinea pig. The note with it: Cavia porcellus; Dose 25 γ/ml; contractile response to histamine (0.5 mcg/ml). The text has this: Test 73 - Antihistaminic (in vitro):
Inhibition of submaximal contractile responses of isolated guinea pig ileal segments, bathed in physiological salt solution, to histamine (0.5 mcg/ml) by more than 80 percent (>80) indicates activity.

Molecule `CC(C)(C)c1ccc(C(O)CCCN2CCC(C(O)(c3ccccc3)c3ccccc3)CC2)cc1` (stereo not shown) [Terfenadine, reference compound] yielded an inhibition at 25 µg/mL of 83%.
